Experimental data published in PubChem BioAssay AID504692 (The Scripps Research Institute Molecular Screening Center, 2011).
The list shows a part of the results, in another mix than the full data. Activity calls are given as the source filed them. No stated cut-off is given here; in the data, active means activation mostly above about 9.5% (no sharp cut-off); inactive means mostly below about 7.6%.

By UniProt entry, the sequences of proteins in these tests, tags left out.
UniProt P47898, whole entry, looked up: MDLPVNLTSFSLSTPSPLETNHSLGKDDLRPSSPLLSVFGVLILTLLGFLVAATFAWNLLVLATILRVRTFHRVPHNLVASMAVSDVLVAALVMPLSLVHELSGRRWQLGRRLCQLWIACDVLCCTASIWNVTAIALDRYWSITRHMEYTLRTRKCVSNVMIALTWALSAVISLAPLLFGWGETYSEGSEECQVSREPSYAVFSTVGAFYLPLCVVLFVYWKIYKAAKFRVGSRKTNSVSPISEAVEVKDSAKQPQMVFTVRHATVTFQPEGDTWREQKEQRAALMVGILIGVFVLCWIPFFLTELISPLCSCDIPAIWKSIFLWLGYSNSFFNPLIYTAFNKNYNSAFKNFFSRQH

These molecules were tested against 5-hydroxytryptamine receptor 5A (Homo sapiens) (UniProt P47898) (assay: HTR5A agonists in luminescence cell assay, primary screen, counter-screen for OPRM1-OPRD1 heterodimer agonist project, full-deck HTS (AID 504692;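 further: 0% = cells with vehicle only and 100% = reference agonist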)). Conditions: cell-based, at 9.3 µM, stronger effect = higher value.

Compound	activation
CN(C)C(=O)Cn1c(SCC(=O)Nc2ccc3c(c2)OCO3)nc2ccccc21	inactive: 4.44%
Nc1nonc1-c1nc2ccccc2n1CC(=O)N/N=C\c1ccc(-c2ccc(Cl)cc2)o1	inactive: -1.97%
CSc1nc(N)nc2c1ncn2CC(=O)NCc1ccc2[nH]ccc2c1	inactive: 3.19%
NC(=O)c1cc([N+](=O)[O-])cc([N+](=O)[O-])c1N	inactive: 1.37%
C[C@H](O)[C@@H]1C(=O)N2CCc3ccc(-c4ccccc4)cc3[C@@H]2C[C@@H]1N(C)C(=O)NC1CCCCC1	inactive: -2.67%
O=C(Nc1ccccc1)N1CCC(n2c(=O)[nH]c3ccccc32)CC1	inactive: 0.91%
CC1CCCN(C(=O)Cn2c(-c3nonc3N)nc3ccccc32)C1 (configuration not stated)	inactive: -3.94%
Cc1ccc2c(c1)C1CN(C)CCC1N2C(=O)c1ccc(Cl)c(S(=O)(=O)N2CCOCC2)c1 (configuration not stated)	inactive: 0.54%
CN(CC(=O)Nc1ccc(F)c(F)c1F)C(=O)Cn1cnc2c1c(=O)n(C)c(=O)n2C	inactive: 0.74%
CN(C(=O)Cc1ccc(Cl)c(Cl)c1)[C@H]1CCCC[C@H]1N1CCCC1	inactive: 3.25%
O=C(CSc1nc2ccccc2n1CC(=O)N1CCCCC1)N1CCCCC1	inactive: 3.31%
CC(CNC(=O)Cn1cnc2c(NCc3ccccc3)ncnc21)c1ccccc1 (configuration not stated)	inactive: 1.14%
CCN(CC)CCn1c(NS(=O)(=O)c2ccc(C)cc2)nc2ccccc21	inactive: 8.87%
O=C(Cn1cnc2c(NCc3ccccc3)ncnc21)NCc1ccc2c(c1)OCO2	inactive: 2.34%
Cc1ccc(N/C(=N/P(=O)(N2CCOCC2)N2CCOCC2)N2CCOCC2)cc1	inactive: -0.46%
CCOCN(C(=O)Cn1c(C(C)O)nc2ccccc21)c1c(C)cccc1CC (configuration not stated)	inactive: 4.41%
CC(O)c1nc2ccccc2n1CC(=O)N1CCN(c2ccccc2)CC1 (configuration not stated)	inactive: 0.21%
CN1CCN(CCN2CCn3c2nc2ccccc23)CC1	inactive: -1.19%
COc1ccccc1OP(=O)(Nc1ccc(C)cn1)Oc1ccccc1OC	inactive: 1%
CN1CC[C@]2(CCN3CCc4c(oc5ccccc45)[C@@H]3C2)N(C)C1=O	inactive: 9.48%
Cc1nc2cc(F)ccc2n1C1CCN(Cc2nnnn2CCc2ccccc2)CC1	inactive: -1.15%
CCC(C)(C)n1nnnc1CN1CCC(n2c(C)nc3cc(C(F)(F)F)ccc32)CC1	inactive: 4.05%

Compound	activation
O=C1Cn2c(nc3ccccc32)N1c1cccc(C(F)(F)F)c1	inactive: 3.77%
COc1ccc(C(=O)CSc2nc3ccccc3n2CC(=O)NC(C)(C)C)cc1	inactive: -2.83%
CCOc1cc(N2CCOCC2)c(OCC)cc1NC(=O)Cn1cnc2c(=O)n(C)c(=O)n(C)c21	inactive: -2.42%
COc1ccc(CNC(=O)CCCCCNC(=O)N2CCn3c2nc2ccccc23)cc1	inactive: -0.53%
CCCCOC(=O)Cn1c(=N)n(CCN2CCOCC2)c2ccccc21	inactive: -1.14%
CN1CCCC(OC(=O)C(c2ccccc2)c2ccccc2)C1 (configuration not stated)	inactive: -1.71%
Cc1ccc(/C=N/NC(=O)Cn2cnc3ccccc32)cc1	inactive: -0.56%
O=C(Cn1c(NCCO)nc2ccccc21)NCCc1ccccc1	inactive: -2.5%
Clc1ccc(Cl)c(NC2=NCC(CBr)S2)c1 (configuration not stated)	inactive: 3.32%
FC(F)(F)c1ccc2c(c1)nnn2C1CCN(Cc2nnnn2Cc2ccccc2)CC1	inactive: 0.81%
CCC(=O)Nc1ccc(NC(=S)NC(=O)/C=C/c2ccccc2)cc1	inactive: -6%
COc1ccc2nc(NC(=O)Cn3cnc4c(=O)n(C)c(=O)n(C)c43)sc2c1	inactive: 2.86%
COCC(=O)N(C)[C@H]1C[C@H]2c3cc(N4CCN(C)CC4)ccc3CCN2C(=O)[C@H]1[C@H](C)O	inactive: 0.02%
Nc1ccc([As](=O)(O)c2ccc(N)cc2)cc1	inactive: 3.46%
c1ccc(CCn2nnnc2CN2CCC(n3nnc4ccccc43)CC2)cc1	inactive: -1.65%
CCC(CC)NC(=O)Cn1c(C(C)NC(C)=O)nc2ccccc21 (configuration not stated)	inactive: 3.44%
C[C@H](NC(=O)N1CCn2c1nc1ccccc12)C(=O)NC1CCCCC1	inactive: -3.3%
CCc1ccc(C(C)NC(=O)Cn2cnc3c(=O)n(C)c(=O)n(C)c32)cc1 (configuration not stated)	inactive: 3.11%
Cc1nc2ccccc2n1CC(=O)NC(C)C1CC2CCC1C2 (configuration not stated)	inactive: 0.72%
COc1ccc(-c2ccc3c(c2)[C@@H]2C[C@H](N(C)C(=O)Nc4ccccc4)[C@H]([C@H](C)O)C(=O)N2CC3)cc1	inactive: 0.07%
C[N+]1=C2C=CC=CC=C2SC12C([N+](=O)[O-])=CC([N+](=O)[O-])=C[C-]2[N+](=O)[O-] (configuration not stated)	inactive: -5.05%
Cc1ccc(-c2nnc(N3CCN(C(=O)Cn4c(=O)n(C)c5ccccc54)CC3)c3ccccc23)cc1	inactive: 0.96%

Compound	activation
COc1ccc(/C([O-])=C(/C(=S)Nc2ccc(C)c(C)c2)n2c[n+](C)c3ccccc32)cc1OC	inactive: -4.64%
CCN(/C(=N/P(=O)(N1CCOCC1)N1CCOCC1)N1CCOCC1)c1ccc(OC)cc1	inactive: 3.2%
CC(C)C[C@H](NC(=O)N1CCn2c1nc1ccccc12)C(=O)NC1CCCCC1	inactive: 2.71%
O=C(Nc1ccc2c(c1)nc1n2CCN(Cc2ccccc2)C1)NC1CCCCC1	inactive: 2.36%
CCOC(=O)c1c(NC(=O)Cn2c(C)nc3ccccc32)sc2c1CCC2	inactive: 4.14%
Cn1c(=O)c2c(ncn2CC(=O)N2CCN(c3ccc([N+](=O)[O-])cc3)CC2)n(C)c1=O	inactive: 1.74%
CN1CCC(N(C)c2ncnc3ccc(Br)cc23)CC1	inactive: -2.4%
CCc1nc2ccccc2n1CC(=O)N(C(C)CC)C1CCS(=O)(=O)C1 (configuration not stated)	inactive: -3.28%
COC(=O)[C@H](Cc1ccc(O)cc1)NC(=O)Cn1cnc2c(NCc3ccccc3)ncnc21	inactive: 5.09%
Cn1c(=O)n(CC(=O)N2CCN(c3nnc(-c4ccccc4)c4ccccc34)CC2)c2ccccc21	inactive: -4.9%
CC(C)=N/N=C(\N)N[N+](=O)[O-]	inactive: 3.34%
CCN(CC)CCn1c(NCc2cccc(OC)c2OC)nc2ccccc21	inactive: -1.85%
NNC(=O)Cn1c(SCc2ccccc2)nc2ccccc21	inactive: 4.54%
O=C(Cn1cnc2c(OCc3ccccc3)ncnc21)NCCCN1CCCC1=O	inactive: 3.74%
CN(C)C(=O)OCCc1n(C)cc[n+]1C	inactive: -2.68%
CC1CCN(C(=O)Oc2c(Cl)cc(Cl)c3cccnc23)CC1	inactive: 0.42%
N=c1n(CCN2CCOCC2)c2ccccc2n1CC(=O)c1cccc([N+](=O)[O-])c1	inactive: 2.65%
CNC(=O)Cc1nc2ccccc2n1CC(=O)Nc1cc(C)cc(C)c1	inactive: 5.09%
O=C1CC(C(=O)Nc2cccc(F)c2)n2c(nc3ccccc32)N1 (configuration not stated)	inactive: -0.2%
CCSc1nc2ccccc2n1CC(=O)N1CCCCC1	inactive: 9.65%
O=C(Cn1cnc2c(OCc3ccccc3)ncnc21)NCCCn1ccnc1	inactive: -0.5%
Cc1nc2ccccc2n1CC(=O)NC1CCCCCC1	inactive: 7.46%

Compound	activation
O=C(NC1CCCCC1)N1CCC(n2c(=O)[nH]c3ccccc32)CC1	inactive: 17.8%
Cn1c(=O)c2c(nc(Sc3nc4ccccc4n3CC(=O)N3CCCCC3)n2C)n(C)c1=O	inactive: 0.83%
CCC(C)[C@H](NC(=O)N1CCn2c1nc1ccccc12)C(=O)NCCc1ccccc1 (some centres not stated)	inactive: -11.1%
C[C@H](O)[C@@H]1C(=O)N2CCc3ccc(-c4ccccc4)cc3[C@@H]2C[C@@H]1N(C)C(=O)Nc1cc(Cl)cc(Cl)c1	inactive: 5.99%
CCC(=O)Nc1cccc(C(=O)/C=C/c2cccs2)c1	inactive: -3.24%
Cn1c(=O)c2c(ncn2CC(=O)N/N=C/c2ccco2)n(C)c1=O	inactive: 2.65%
CCN(CC)CCn1c(=N)n(CCO)c2ccccc21	inactive: 1.09%
COc1ccc(C2=NCC(CBr)S2)cc1 (configuration not stated)	inactive: -2.79%
CC(=O)N1CCc2cc(S(=O)(=O)NC(CC(C)C)C(=O)N3CCn4c3nc3ccccc34)ccc21 (configuration not stated)	inactive: -3.33%
CCOC(=O)CSc1nc2ccccc2n1CC(=O)N1CCN(c2ccccc2)CC1	inactive: -5.78%
c1ccc(CN2CCC3(CC2)Nc2ccccc2CO3)cc1	inactive: 1.46%
CSc1nc(N)nc2c1ncn2CC(=O)NCCCc1ccccc1	inactive: 3.27%
Cn1c(=O)c2c(ncn2CC(=O)N2CCN(c3ccccc3F)CC2)n(C)c1=O	inactive: -3.45%
COc1cc(NC(=O)Cn2cnc3c(SC)nc(N)nc32)cc(OC)c1OC	inactive: -2.09%
Cc1ccc(SCc2nc3ccccc3n2CC(=O)Nc2ccccc2)cc1	inactive: 2.91%
Cc1ccc2c(c1)C1CN(C)CCC1N2S(=O)(=O)c1ccc(Oc2ccc([N+](=O)[O-])cc2)cc1 (configuration not stated)	inactive: -5.62%
N#CCC(=O)N/N=C\c1cc(Br)ccc1OC/C=C/c1ccccc1	inactive: -2.7%
Cn1c(=O)c2c(nc(Cl)n2CC(=O)NC2(C#N)CCCCC2)n(C)c1=O	inactive: 5.27%
Cc1cc(NC(=O)CSc2nc3ccccc3n2CC(=O)N2CC(C)CC(C)C2)no1 (configuration not stated)	inactive: 2.74%
O=C(Cn1c(NCCO)nc2ccccc21)N1CCN(Cc2ccccc2)CC1	inactive: -2.99%
NC(=O)CC(NC(=O)c1ccccc1)c1ccc(NC2CCN(Cc3ccccc3)CC2)c([N+](=O)[O-])c1 (configuration not stated)	inactive: 0.45%
